Source: patent US12558356B2, “Immunophilin binding agents and uses thereof” (The Regents of the University of California, priority 2019, dated 2026)

Chains of the proteins cited; added tags and fusions are not shown.
UniProt P62942, whole entry: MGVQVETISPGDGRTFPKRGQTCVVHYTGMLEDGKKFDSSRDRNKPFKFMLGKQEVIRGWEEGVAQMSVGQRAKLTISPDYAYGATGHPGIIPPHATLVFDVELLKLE

Assays:
FKBP12 = FKBP12 (Homo sapiens (Human), UniProt P62942); conditions: read-out: Kd (binding to FKBP12); fluorescence polarization assay
[1] = test system: mTOR signaling in MCF7 cells; assay: Rescue of mTOR inhibition in MCF7 cells, 4 h, Western blot
mTOR = assay: Rescue of mTOR inhibition in cells

For `CO[C@H]1C[C@@H](C)C/C(C)=C\[C@@H](CCCc2cccc[n+]2[O-])C(=O)C[C@H](O)[C@@H](C)[C@@H](/C(C)=C/[C@@H]2CC[C@@H](O)[C@H](OC)C2)OC(=O)[C@@H]2CCCCN2C(=O)C(=O)[C@]2(O)O[C@H]1[C@@H](OC)C[C@H]2C`, the Kd (FKBP12) was 3.7 nM, the “Rescue of mTOR inhibition by Rapamycin or RapaLink-1” value [1] was “rescues mTOR inhibition” and the “rescue of mTOR inhibition” value (mTOR; inhibition by RapaLink-1, in cells) was “rescues mTOR inhibition”. The “rescue of mTOR inhibition” value (mTOR; inhibition by Rapamycin, in cells) was “rescues mTOR inhibition”.
